Results from PMC8035306 (Journal of medicinal chemistry, 2021).

The chains behind the UniProt entries cited, without tags or fusion partners.
UniProt Q96LA8, whole entry: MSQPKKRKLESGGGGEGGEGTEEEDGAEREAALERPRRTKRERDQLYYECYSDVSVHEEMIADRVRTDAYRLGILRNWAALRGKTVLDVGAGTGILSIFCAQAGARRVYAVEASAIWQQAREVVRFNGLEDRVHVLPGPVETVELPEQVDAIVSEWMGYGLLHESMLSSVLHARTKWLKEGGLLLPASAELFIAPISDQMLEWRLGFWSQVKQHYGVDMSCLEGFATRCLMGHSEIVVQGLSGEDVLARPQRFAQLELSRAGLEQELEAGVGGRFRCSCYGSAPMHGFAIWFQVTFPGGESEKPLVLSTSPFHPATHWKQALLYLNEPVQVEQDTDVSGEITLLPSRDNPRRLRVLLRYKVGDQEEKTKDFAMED

Molecular target: PRMT6 (Homo sapiens, UniProt Q96LA8)
Test: PRMT6 radiometric biochemical assay, 2 h preincubation
Details: read-out: PRMT6 IC50

IC50: > 50 µM
SMILES: Cc1cc(C)cc([C@H]2c3cc(C)ccc3NC(=O)CN2C(=O)c2ccc(Br)s2)c1 [(S)-2, 4-(5-bromothiophene-2-carbonyl)-5-(3,5-dimethylphenyl)-7-methyl-1,3,4,5-tetrahydro-2H-benzo[e][1,4]diazepin-2-one]
